This is an account of results in PubChem BioAssay AID493011 (Sanford-Burnham Center for Chemical Genomics, 2011).

Sequences of proteins named here, by UniProt entry; tags and fusion partners are left off.
UniProt P31941, whole entry: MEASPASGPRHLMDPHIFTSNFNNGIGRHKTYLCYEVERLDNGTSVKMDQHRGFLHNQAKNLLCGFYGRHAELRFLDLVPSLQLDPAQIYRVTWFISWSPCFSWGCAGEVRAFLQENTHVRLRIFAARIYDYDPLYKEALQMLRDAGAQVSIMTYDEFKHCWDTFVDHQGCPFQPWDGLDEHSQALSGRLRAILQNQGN

This is a selection; strong and weak results do not stand in their true shares. Some salts and complexes are drawn in separate pieces, as the source files them; their charges need not balance. Calls of active or inactive are those of the source.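 Rule for the calls: active = at least 40% inhibition at 20 µM here, with at most 30% in a related deaminase screen; inactive = the rest.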

For the experiment, the target named is DNA dC->dU-editing enzyme APOBEC-3A (Homo sapiens) (UniProt P31941). Nature of the experiment: blockers of A3A cytidine deamination on DNA – biochemical, FAM/TAMRA oligo cleavage fluorescence, selectivity assay for APOBEC3G inhibitor project, primary screen (AID 493011).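 Note: plate controls were A3A with DMSO for no effect and wells lacking A3A enzyme for full effect.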 The following applies: recombinant A3A, FAM/TAMRA ssDNA deamination fluorescence; at 20 µM; active compounds read high.
One may read the inhibition as the drop in the measured response relative to a control, in per cent. Consider `CCN(CC)CCCOC(=O)C(O)(c1ccccc1)c1ccccc1`, for which the inhibition is inactive: -1.64%.
To `Cc1cccc(C)c1OP(C)(N)=O` (configuration not stated) belongs inactive: 1.47%.
Regarding `CC(C)(C)c1ccc(OP(C)(=O)Nc2ccc(SC(F)(F)F)cc2)cc1` (configuration not stated), the inhibition is inactive: -4.86%.
For the compound `O=[N+]([O-])c1cc([N+](=O)[O-])c(Nc2cccnc2)c([N+](=O)[O-])c1`, the inhibition was inactive: 1.98%.
The value for `Cc1cc(C)cc(OP(C)(N)=O)c1` (configuration not stated) was inactive: -5.56%; that for `COc1ccc(OP(C)(=O)Nc2cccc(F)c2)cc1` (configuration not stated) was inactive: -2.81%.
To `COc1ccccc1OP(C)(=O)Nc1cc(Cl)ccc1C` (configuration not stated) belongs inactive: -1.32%; to `Cc1ccc(NP(C)(=O)Oc2ccccc2)c(C)c1` (configuration not stated), inactive: 0.343%; to `COc1ccccc1OP(C)(=O)Nc1ccc(C)cc1` (configuration not stated), inactive: 0.757%.
As for `CCOC(=O)c1ccc(NP(C)(=O)Oc2ccccc2)cc1` (configuration not stated), the inhibition was inactive: -2.13%.
The value for `CP(=O)(Nc1ccccc1Br)Oc1ccccc1` (configuration not stated) was inactive: -0.507%; that for `COc1ccccc1OP(C)(=O)Nc1ccccc1` (configuration not stated) was inactive: 1.54%.
To `CP(=S)(Nn1cnnc1)Oc1ccccc1` (configuration not stated) belongs inactive: -2.57%; to `Cc1cc(C)cc(OP(C)(=O)Nc2ccc(SC(F)(F)F)cc2)c1` (configuration not stated), inactive: -2.44%.
To `CP(=O)(NC(=O)Nc1ccccc1)Oc1ccccc1` (configuration not stated) belongs inactive: -5.2%; to `CCc1ccc(OP(C)(=O)N2CCN(c3ccc([N+](=O)[O-])cc3)CC2)cc1` (configuration not stated), inactive: -1.61%.
For the compound `CP(=O)(Oc1ccccc1)OC(c1ccccc1)C(F)(F)F` (configuration not stated), the inhibition was inactive: 3.21%.
To `CP(=O)(Nc1ccc(SC(F)(F)F)cc1)Oc1ccc(Cl)cc1` (configuration not stated) belongs inactive: -0.023%; to `Cc1cccc(C)c1OP(C)(=O)Nc1ccc(SC(F)(F)F)cc1` (configuration not stated), inactive: -3.34%.
To `CP(=O)(Nc1ccccn1)Oc1ccc(Cl)cc1` (configuration not stated) belongs inactive: 1.83%; to `O=[N+]([O-])c1cc([N+](=O)[O-])c(O)c([N+](=O)[O-])c1.c1ccc(Oc2ccncc2)cc1`, inactive: -0.158%; to `CCOC(=O)c1ccc(NP(C)(=O)Oc2ccc(OC)cc2)cc1` (configuration not stated), inactive: -1.05%.
The value for `CCOP(C)(=S)SCC(=O)NC(C)C(=O)O` (configuration not stated) was inactive: -2.43%; that for `O=[N+]([O-])c1cc([N+](=O)[O-])c(-n2nnc3ccccc32)c([N+](=O)[O-])c1` was inactive: 2.08%; that for `Cc1nc2ccc3ccccc3c2s1.O=[N+]([O-])c1cc([N+](=O)[O-])c(O)c([N+](=O)[O-])c1` was inactive: -4.93%.
With `O=[N+]([O-])c1cc([N+](=O)[O-])c(-c2cnn(-c3ccccc3)c2)c([N+](=O)[O-])c1`, the inhibition is inactive: -2.4%.
The value for `CCOC(=O)C(CC)C1=NC(C)(C)Cc2ccccc21.O=[N+]([O-])c1cc([N+](=O)[O-])c(O)c([N+](=O)[O-])c1` (configuration not stated) was inactive: -1.66%; that for `CC1=C2N=C(C=C3N=C(C(C)=C4[N-][C@@](C)([C@@H]5N=C1[C@](C)(CCC(=O)NC[C@@H](C)OP(=O)([O-])O[C@H]1[C@@H](O)[C@@H](n6cnc7cc(C)c(C)cc76)O[C@@H]1CO)[C@H]5CC(N)=O)[C@@](C)(CC(N)=O)[C@@H]4CCC(N)=O)[C@@](C)(CC(N)=O)[C@@H]3CCC(N)=O)C(C)(C)[C@@H]2CCC(N)=O.[C-]#N.[Co+3]` was inactive: 8.18%.
Consider `O=[N+]([O-])c1cc([N+](=O)[O-])c(Nc2nnnn2CCO)c([N+](=O)[O-])c1`, for which the inhibition is inactive: -1.27%.
The value for `CCCOc1ccc(NP(C)(=O)Oc2ccc(Cl)cc2)cc1` (configuration not stated) was inactive: -3.24%; that for `CP(=O)(Nc1ccc(SC(F)(F)F)cc1)Oc1ccccc1` (configuration not stated) was inactive: -1.55%.
`CN1CCCCC1COC(=O)C1(O)c2ccccc2CCc2ccccc21` (configuration not stated): the inhibition is inactive: -1.21%.
To `COc1ccccc1OP(C)(=O)Nc1c(C)cccc1C` (configuration not stated) belongs inactive: -0.316%; to `O=C(O)c1cccc(Nc2c([N+](=O)[O-])cc([N+](=O)[O-])cc2[N+](=O)[O-])c1`, inactive: 1.43%.
The value for `CC1=NCCc2c1[nH]c1ccccc21.O=[N+]([O-])c1cc([N+](=O)[O-])c(O)c([N+](=O)[O-])c1` was inactive: 1.98%; that for `CCOC(=O)c1ccc(NP(C)(=O)Oc2cc(C)cc(C)c2)cc1` (configuration not stated) was inactive: 1.56%; that for `Cc1cc(C)cc(OP(C)(=O)Nc2ccc(C)cc2C)c1` (configuration not stated) was inactive: 3.57%.
The value for `COc1ccccc1OP(C)(=O)Nc1cccc(Br)c1` (configuration not stated) was inactive: 1.61%; that for `Cc1ccc(C)c(NP(C)(=O)Oc2ccccc2)c1` (configuration not stated) was inactive: 5.78%; that for `Cc1cc(C)cc(OP(C)(=O)Nc2ccccn2)c1` (configuration not stated) was inactive: -1.88%.
As for `CP(=O)(Nc1cccc(Br)c1)Oc1ccccc1` (configuration not stated), the inhibition was inactive: -1.37%.
The value for `CP(=O)(Nc1ccccc1F)Oc1ccccc1` (configuration not stated) was inactive: -1.55%; that for `CC(C)c1ccc(OP(C)(=O)Nc2ccc(SC(F)(F)F)cc2)cc1` (configuration not stated) was inactive: 0.125%; that for `COc1ccc2c(c1O)-c1c(O)c(OC)cc3c1[C@H](C2)[N+](C)(C)CC3.O=[N+]([O-])c1cc([N+](=O)[O-])c([O-])c([N+](=O)[O-])c1[O-]` was inactive: 4.45%.
To `O=C(OC1CN2CCC1CC2)c1ccc([N+](=O)[O-])cc1` (configuration not stated) belongs inactive: -1.56%; to `O=C(OCCN1CCN(CCOCc2ccccc2)CC1)C(O)(c1ccccc1)c1ccccc1`, inactive: -2.21%.
To `CCOC(=O)c1ccc(NP(C)(=O)Oc2ccc(F)cc2)cc1` (configuration not stated) belongs inactive: 1.93%; to `COc1ccc(OP(C)(=O)Nc2ccc(SC(F)(F)F)cc2)cc1` (configuration not stated), inactive: -3.77%.
In the case of `CP(=O)(Nc1ccccc1)Oc1ccc(F)cc1` (configuration not stated), the inhibition was inactive: -2.97%.
To `CCCCCOc1ccc(NP(C)(=O)Oc2ccc(Cl)cc2Cl)cc1` (configuration not stated) belongs inactive: -2.24%.
To `O=[N+]([O-])c1cc([N+](=O)[O-])c(OC2CCCCC2O)c([N+](=O)[O-])c1` (configuration not stated) belongs inactive: -6.02%; to `CCN(CC)CCCOC(=O)C(O)(c1ccccc1)C1CCCCC1` (configuration not stated), inactive: -1.47%.
The value for `CN(C)CCOC(=O)C(O)(c1ccccc1)C1CCCCC1` (configuration not stated) was inactive: -0.773%; that for `COc1ccc(NP(C)(=O)Oc2ccccc2OC)cc1` (configuration not stated) was inactive: -3.74%.
Consider `COc1ccc(OP(C)(=O)Nc2cccc(Br)c2)cc1` (configuration not stated), for which the inhibition was inactive: 1.82%.
To `O=[N+]([O-])c1cc([N+](=O)[O-])c(NCC2CCS(=O)(=O)C2)c([N+](=O)[O-])c1` (configuration not stated) belongs inactive: -5.76%; to `CCOP(C)(=S)SCC(=O)NC(C)(CC)C(=O)O` (configuration not stated), inactive: -2.91%.
To `CP(=O)(Nc1ccc(SC(F)(F)F)cc1)Oc1ccc(F)cc1` (configuration not stated) belongs inactive: -0.692%.
The value for `Cc1ccccc1NP(C)(=O)Nc1ccccc1C` was inactive: -2.47%; that for `CP(=O)(Nc1ccc2c(c1)OCCO2)Oc1ccccc1` (configuration not stated) was inactive: -3.59%; that for `O=C(OCCCN1CCCC1)C(O)(c1ccccc1)C1CCCCC1` (configuration not stated) was inactive: 0.621%.
As for `COc1ccccc1OP(C)(=O)Nc1c(C)n(C)n(-c2ccccc2)c1=O` (configuration not stated), the inhibition is inactive: -0.594%.
To `CCc1ccc(OP(C)(=O)Nc2cccnc2)cc1` (configuration not stated) belongs inactive: -0.994%.
For `CP(=O)(Oc1ccccc1)N1CCOC1=O` (configuration not stated), the inhibition was inactive: 0.206%.
Regarding `COc1ccc(OP(C)(=O)Nc2ccc(Br)cc2)cc1` (configuration not stated), the inhibition is inactive: 0.144%.
With `CCN(CC)CC(O)COC(=O)C(O)(c1ccccc1)C1CCCCC1` (configuration not stated), the inhibition is inactive: 2.75%.
Turning to `CN(C)C(=O)c1c([N+](=O)[O-])cc([N+](=O)[O-])cc1[N+](=O)[O-]`, the inhibition was inactive: -1.1%.
The value for `COc1ccccc1OP(C)(=O)Nc1ccccc1Br` (configuration not stated) was inactive: 2.1%.
Consider `CC(C)(C)c1ccc(OP(C)(=O)O)cc1`, for which the inhibition was inactive: 0.374%.
For `CP(=O)(Nc1ccc(Cl)cc1)Oc1ccc(F)cc1` (configuration not stated), the inhibition was inactive: 1.4%.
To `CCOC(=O)c1ccc(NP(C)(=O)Oc2ccc(Cl)cc2)cc1` (configuration not stated) belongs inactive: -1.58%; to `CP(=O)(OC12CC3CC(CC(C3)C1)C2)OC12CC3CC(CC(C3)C1)C2`, inactive: 6.75%; to `Nc1ccc2c(ccc3cccnc32)n1.O=[N+]([O-])c1cc([N+](=O)[O-])c(O)c([N+](=O)[O-])c1`, inactive: 4.24%.
The value for `COc1ccccc1OP(C)(=O)Nc1ccc(C)c(C)c1` (configuration not stated) was inactive: -0.994%.
To `COc1ccc(OP(C)(=O)Nc2ccccc2Br)cc1` (configuration not stated) belongs inactive: -0.461%.
For `Cc1cc(C)cc(OP(C)(=O)Nc2cccc(C(F)(F)F)c2)c1` (configuration not stated), the inhibition was inactive: -3.89%.
To `CP(=O)(Nc1ccc(Cl)cc1Cl)Oc1ccccc1` (configuration not stated) belongs inactive: -2.82%; to `CP(=O)(OCCOc1ccccc1)OCCOc1ccccc1`, inactive: 3.01%.
The value for `Cc1nc2ccc3ccccc3c2o1.O=[N+]([O-])c1cc([N+](=O)[O-])c(O)c([N+](=O)[O-])c1` was inactive: 0.534%; that for `COc1ccc(OP(C)(=O)Nc2ccccn2)cc1` (configuration not stated) was inactive: -6.61%.
The value for `CN(C)CCOC(=O)C(O)(c1ccccc1)C1CCCC1` (configuration not stated) was inactive: 1.98%; that for `COc1ccccc1OP(C)(=O)Nc1ccc(Br)cc1` (configuration not stated) was inactive: 2.42%; that for `COc1ccccc1OP(C)(=O)Nc1ccc(C)cc1C` (configuration not stated) was inactive: -0.689%.
Consider `CP(=O)(Nc1ccccn1)Oc1ccccc1` (configuration not stated), for which the inhibition is inactive: -1.31%.
To `CCc1ccc(OP(C)(=O)O)cc1` belongs inactive: 0.148%; to `Cc1c(NP(C)(=O)Oc2ccc(C(C)C)cc2)c(=O)n(-c2ccccc2)n1C` (configuration not stated), inactive: 3.48%.
The value for `O=[N+]([O-])c1cc([N+](=O)[O-])c(Nc2ccccn2)c([N+](=O)[O-])c1` was inactive: 0.126%.
